# Where two headings read alike, the source gives them in different places.
# The chains behind the UniProt entries cited, without tags or fusion partners.
# UniProt P49356, whole entry: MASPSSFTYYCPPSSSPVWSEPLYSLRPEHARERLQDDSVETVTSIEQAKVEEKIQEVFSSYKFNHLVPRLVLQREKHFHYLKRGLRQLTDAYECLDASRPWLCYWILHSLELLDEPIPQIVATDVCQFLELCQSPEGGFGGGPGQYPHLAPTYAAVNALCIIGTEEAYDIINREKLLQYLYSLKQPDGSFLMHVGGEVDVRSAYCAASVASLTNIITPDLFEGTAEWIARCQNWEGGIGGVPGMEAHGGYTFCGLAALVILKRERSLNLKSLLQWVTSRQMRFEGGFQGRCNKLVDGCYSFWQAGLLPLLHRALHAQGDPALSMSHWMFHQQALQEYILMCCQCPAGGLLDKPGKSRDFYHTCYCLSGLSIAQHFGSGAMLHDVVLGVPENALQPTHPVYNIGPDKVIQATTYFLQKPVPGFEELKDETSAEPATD
# Assays:
# [1] = target: hFTase (Homo sapiens, UniProt P49354+P49356); experiment: In vitro hFTase inhibition: incorporation of [3H]FPP into recombinant H-Ras-CVLS; type: biochemical
# [2] = system: farnesylation of H-Ras; experiment: Whole cell inhibition of H-Ras processing (farnesylation), immunoblot, oncogenic H-Ras-transformed NIH3T3 cells
# [3] = system: geranylgeranylation of Rap1A; experiment: Whole cell inhibition of Rap1A processing (geranylgeranylation), immunoblot, oncogenic H-Ras-transformed NIH3T3 cells; conditions: read-out: Rap1A processing IC50, n = 3 unless stated
compound,measurement,setting,value
Cn1cnc(S(=O)(=O)N(CCN(Cc2cncn2C)c2ccc(C#N)cc2)CC2CCCCC2)c1,selectivity (ratio of GGTase-I to FTase IC50s),[1]; GGTase-I IC50 / hFTase IC50,8.8
same,IC50,"[1]; read-out: hFTase IC50, in vitro, average of three independent assays (n = 3) unless stated, errors are standard deviations",60 nM
same,GGTase-I/FTase selectivity,[1]; selectivity for hFTase over GGTase-I,about 9 fold
same,IC50,"[2]; read-out: H-Ras processing IC50 (whole cell), NIH 3T3, values in nM",90 nM
same,IC50,"[2]; read-out: H-Ras processing IC50, oncogenic H-Ras-transformed NIH3T3, n = 3 unless stated",100 nM
same,IC50,[3],> 10 µM

# — patent publication US9040563B2, “Dual inhibitors of farnesyltransferase and geranylgeranyltransferase I” (H. Lee Moffitt Cancer Center and Research Institute, Inc., priority 2010, dated 2015)
